Source: paper PMC9326885 (Journal of Food and Drug Analysis, 2017)

Sequences of proteins named here, by UniProt entry; tags and fusion partners are left off. A change or cut given only in a name is not applied to a line headed by its entry.
UniProt Q92887: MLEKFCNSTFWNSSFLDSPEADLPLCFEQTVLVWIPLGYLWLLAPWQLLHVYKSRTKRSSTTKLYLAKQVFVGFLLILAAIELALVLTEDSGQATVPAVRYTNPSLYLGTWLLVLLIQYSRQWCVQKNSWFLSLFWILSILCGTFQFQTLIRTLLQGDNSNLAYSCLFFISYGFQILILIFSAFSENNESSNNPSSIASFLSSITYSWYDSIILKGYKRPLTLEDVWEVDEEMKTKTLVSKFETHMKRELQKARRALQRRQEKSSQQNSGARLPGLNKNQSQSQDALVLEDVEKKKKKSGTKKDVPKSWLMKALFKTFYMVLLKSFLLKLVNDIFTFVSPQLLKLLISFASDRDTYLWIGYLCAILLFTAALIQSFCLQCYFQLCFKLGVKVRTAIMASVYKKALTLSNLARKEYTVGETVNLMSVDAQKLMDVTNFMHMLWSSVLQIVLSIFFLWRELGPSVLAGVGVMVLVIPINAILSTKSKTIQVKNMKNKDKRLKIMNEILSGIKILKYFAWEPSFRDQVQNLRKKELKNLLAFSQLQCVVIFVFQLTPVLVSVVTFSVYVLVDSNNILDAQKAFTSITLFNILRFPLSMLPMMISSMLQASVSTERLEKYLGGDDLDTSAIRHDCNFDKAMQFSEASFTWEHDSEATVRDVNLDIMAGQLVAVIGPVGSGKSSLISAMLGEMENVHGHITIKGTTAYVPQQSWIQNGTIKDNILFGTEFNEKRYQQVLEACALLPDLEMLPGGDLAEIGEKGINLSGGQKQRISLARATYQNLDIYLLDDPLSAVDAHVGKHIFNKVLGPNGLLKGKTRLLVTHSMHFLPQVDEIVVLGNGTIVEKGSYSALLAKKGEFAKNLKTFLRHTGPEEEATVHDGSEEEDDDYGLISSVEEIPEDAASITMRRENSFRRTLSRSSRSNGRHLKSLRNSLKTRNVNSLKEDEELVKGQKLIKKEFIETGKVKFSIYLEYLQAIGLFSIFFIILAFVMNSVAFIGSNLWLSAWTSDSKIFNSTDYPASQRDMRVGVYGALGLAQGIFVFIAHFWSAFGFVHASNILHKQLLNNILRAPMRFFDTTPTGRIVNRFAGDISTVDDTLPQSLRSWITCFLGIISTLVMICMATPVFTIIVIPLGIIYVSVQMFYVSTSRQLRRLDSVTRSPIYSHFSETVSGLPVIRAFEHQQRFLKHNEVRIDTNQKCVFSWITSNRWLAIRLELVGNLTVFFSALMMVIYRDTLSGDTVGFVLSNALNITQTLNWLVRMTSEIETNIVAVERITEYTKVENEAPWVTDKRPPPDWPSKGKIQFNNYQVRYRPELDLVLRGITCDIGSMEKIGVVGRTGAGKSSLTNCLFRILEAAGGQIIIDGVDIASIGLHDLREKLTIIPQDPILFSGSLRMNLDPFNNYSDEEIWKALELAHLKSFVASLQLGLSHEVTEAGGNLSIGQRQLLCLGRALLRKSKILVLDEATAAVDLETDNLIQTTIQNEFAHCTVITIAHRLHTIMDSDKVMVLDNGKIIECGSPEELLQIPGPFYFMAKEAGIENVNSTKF

Target: MRP 2 (Homo sapiens, UniProt Q92887)
Assay: Effect on MRP 2-mediated efflux transport
Format: cell-based
Conditions: MDCKII-MRP 2 cells, 100 μM, positive control of MRP 2 inhibitor

## CN(C)C(=O)CCSC(SCCC(=O)O)c1cccc(/C=C/c2ccc3ccc(Cl)cc3n2)c1 (stereo not shown) [MK 571]
  Increase of intracellular accumulation of GSMF: 63%
